Values of other authors in patent publication US7517900B2, “Pyrazole derivatives as cannabinoid receptor modulators” (Bristol-Myers Squibb Company, priority 2003, dated 2009).

Conditions: chronic administration for two weeks

Cc1c(C(=O)NN2CCCCC2)nn(-c2ccc(Cl)cc2Cl)c1-c1ccc(I)cc1 [AM-251]
adipose tissue mass: decreased adipose tissue mass
